Test results reported in ChEMBL document CHEMBL1133464, “Ligands for glutamate receptors: design and therapeutic prospects” (J Med Chem, 2000).

The chains behind the UniProt entries cited, without tags or fusion partners. Where a name states a change or a piece, a line headed by the entry shows the natural chain unless it says otherwise.
UniProt Q14832: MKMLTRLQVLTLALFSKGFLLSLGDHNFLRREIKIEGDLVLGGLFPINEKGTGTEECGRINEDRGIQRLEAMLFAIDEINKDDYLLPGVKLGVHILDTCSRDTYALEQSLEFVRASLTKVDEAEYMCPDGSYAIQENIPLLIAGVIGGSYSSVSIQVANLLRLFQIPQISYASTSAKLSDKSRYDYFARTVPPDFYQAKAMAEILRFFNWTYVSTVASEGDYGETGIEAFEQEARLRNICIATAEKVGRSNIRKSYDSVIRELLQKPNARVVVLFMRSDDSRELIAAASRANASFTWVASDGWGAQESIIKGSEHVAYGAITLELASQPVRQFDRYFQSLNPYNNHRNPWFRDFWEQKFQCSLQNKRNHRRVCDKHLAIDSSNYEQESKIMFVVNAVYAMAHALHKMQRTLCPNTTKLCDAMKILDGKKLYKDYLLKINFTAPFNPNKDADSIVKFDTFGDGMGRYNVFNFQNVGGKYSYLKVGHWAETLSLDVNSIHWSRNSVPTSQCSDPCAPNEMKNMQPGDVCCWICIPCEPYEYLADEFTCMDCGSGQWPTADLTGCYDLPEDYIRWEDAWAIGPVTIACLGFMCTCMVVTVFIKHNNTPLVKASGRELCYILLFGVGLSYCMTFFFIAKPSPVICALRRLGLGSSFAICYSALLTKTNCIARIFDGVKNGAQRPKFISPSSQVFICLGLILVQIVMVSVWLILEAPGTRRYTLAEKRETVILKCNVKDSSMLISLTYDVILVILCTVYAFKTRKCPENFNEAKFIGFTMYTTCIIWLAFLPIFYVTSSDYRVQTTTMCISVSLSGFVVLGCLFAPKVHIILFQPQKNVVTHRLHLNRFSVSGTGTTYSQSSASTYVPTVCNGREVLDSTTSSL
UniProt Q13255: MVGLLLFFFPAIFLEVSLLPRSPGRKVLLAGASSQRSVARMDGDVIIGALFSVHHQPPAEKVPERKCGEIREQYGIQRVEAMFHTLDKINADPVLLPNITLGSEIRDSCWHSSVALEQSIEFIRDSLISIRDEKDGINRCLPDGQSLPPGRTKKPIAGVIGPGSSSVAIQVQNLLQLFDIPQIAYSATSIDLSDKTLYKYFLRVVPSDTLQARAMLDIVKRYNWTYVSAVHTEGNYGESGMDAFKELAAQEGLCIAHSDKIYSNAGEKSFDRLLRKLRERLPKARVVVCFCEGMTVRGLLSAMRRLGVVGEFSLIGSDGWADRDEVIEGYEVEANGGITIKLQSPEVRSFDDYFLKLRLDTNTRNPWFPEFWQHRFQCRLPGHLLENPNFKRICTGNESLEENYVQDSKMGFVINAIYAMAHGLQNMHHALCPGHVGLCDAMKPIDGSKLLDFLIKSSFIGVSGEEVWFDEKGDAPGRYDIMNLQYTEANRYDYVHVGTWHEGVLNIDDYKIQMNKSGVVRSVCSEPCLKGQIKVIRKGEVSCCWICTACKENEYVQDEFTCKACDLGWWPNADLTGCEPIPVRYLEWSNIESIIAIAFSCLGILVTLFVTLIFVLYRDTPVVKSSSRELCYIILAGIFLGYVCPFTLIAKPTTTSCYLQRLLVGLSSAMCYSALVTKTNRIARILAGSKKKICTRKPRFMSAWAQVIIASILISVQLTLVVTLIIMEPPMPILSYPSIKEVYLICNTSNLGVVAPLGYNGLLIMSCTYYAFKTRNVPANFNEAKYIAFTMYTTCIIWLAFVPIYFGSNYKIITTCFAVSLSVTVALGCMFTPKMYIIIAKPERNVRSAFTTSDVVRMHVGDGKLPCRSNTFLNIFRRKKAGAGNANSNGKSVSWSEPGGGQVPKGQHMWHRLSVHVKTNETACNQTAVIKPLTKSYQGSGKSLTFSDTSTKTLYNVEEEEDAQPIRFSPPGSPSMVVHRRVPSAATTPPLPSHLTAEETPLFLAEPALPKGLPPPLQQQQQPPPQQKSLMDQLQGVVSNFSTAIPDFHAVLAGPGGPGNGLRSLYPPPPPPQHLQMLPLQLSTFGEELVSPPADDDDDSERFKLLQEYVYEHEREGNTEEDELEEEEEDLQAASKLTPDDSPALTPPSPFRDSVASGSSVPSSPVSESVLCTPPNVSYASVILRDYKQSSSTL

Legend:
[1] = biological target: Metabotropic glutamate receptor 3 (Homo sapiens, UniProt Q14832); assay: Agonist potency against cloned Metabotropic glutamate receptor 3 (mGluR-3).; type: functional
[2] = biological target: Metabotropic glutamate receptor 1 (Homo sapiens, UniProt Q13255); assay: Agonist potency against cloned human metabotropic glutamate receptor 1; type: functional

N[C@@]1(C(=O)O)CC[C@@H](C(=O)O)C1
Ki [1]: 98 µM
Ki [2]: 42 µM
